From ChEMBL document CHEMBL6120936, “Autophagy modulation in cancer therapy: Challenges coexist with opportunities” (Eur J Med Chem, 2024)

Amino acid sequences for entries named in this document (tags omitted).
UniProt P42336, whole entry: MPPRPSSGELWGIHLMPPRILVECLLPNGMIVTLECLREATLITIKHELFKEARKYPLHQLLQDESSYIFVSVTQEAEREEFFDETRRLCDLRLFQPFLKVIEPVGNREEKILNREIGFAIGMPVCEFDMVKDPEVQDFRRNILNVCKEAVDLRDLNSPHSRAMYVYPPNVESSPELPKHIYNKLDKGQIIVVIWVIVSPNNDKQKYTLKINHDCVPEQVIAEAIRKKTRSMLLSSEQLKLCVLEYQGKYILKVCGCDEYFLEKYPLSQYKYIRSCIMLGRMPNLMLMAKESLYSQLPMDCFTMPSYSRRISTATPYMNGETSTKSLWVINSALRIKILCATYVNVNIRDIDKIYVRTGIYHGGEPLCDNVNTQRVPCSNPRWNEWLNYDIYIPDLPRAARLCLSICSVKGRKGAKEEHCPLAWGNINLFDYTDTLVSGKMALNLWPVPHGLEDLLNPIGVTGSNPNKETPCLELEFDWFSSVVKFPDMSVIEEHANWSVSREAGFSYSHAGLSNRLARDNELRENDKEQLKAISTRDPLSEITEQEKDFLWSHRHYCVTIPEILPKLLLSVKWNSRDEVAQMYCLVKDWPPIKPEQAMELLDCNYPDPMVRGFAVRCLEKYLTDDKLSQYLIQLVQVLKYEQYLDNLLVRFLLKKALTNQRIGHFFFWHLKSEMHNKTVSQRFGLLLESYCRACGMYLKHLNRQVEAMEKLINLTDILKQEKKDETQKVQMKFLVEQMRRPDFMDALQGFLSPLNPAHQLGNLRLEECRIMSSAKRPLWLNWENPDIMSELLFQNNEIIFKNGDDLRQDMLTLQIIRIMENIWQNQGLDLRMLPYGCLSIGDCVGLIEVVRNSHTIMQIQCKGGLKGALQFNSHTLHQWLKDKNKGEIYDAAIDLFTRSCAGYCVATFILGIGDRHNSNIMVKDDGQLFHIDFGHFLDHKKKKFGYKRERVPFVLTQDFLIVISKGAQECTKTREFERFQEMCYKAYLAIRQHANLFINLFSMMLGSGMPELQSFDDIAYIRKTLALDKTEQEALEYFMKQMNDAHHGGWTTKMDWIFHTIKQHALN

Columns and labels:
[1] = biological target: Phosphatidylinositol 4,5-bisphosphate 3-kinase catalytic subunit alpha isoform (Homo sapiens, UniProt P42336); assay: Inhibition of PI3K-p110alpha (unknown origin) extracted from baculovirus-infected Sf9 cells incubated for 1 hr by microbeta counter analysis
[2] = biological target: T1, Phosphatidylinositol 4,5-bisphosphate 3-kinase catalytic subunit delta isoform (Homo sapiens, UniProt O00329); assay: Inhibition of PI3Kdelta (unknown origin)
T1 sequence (O00329 whole entry): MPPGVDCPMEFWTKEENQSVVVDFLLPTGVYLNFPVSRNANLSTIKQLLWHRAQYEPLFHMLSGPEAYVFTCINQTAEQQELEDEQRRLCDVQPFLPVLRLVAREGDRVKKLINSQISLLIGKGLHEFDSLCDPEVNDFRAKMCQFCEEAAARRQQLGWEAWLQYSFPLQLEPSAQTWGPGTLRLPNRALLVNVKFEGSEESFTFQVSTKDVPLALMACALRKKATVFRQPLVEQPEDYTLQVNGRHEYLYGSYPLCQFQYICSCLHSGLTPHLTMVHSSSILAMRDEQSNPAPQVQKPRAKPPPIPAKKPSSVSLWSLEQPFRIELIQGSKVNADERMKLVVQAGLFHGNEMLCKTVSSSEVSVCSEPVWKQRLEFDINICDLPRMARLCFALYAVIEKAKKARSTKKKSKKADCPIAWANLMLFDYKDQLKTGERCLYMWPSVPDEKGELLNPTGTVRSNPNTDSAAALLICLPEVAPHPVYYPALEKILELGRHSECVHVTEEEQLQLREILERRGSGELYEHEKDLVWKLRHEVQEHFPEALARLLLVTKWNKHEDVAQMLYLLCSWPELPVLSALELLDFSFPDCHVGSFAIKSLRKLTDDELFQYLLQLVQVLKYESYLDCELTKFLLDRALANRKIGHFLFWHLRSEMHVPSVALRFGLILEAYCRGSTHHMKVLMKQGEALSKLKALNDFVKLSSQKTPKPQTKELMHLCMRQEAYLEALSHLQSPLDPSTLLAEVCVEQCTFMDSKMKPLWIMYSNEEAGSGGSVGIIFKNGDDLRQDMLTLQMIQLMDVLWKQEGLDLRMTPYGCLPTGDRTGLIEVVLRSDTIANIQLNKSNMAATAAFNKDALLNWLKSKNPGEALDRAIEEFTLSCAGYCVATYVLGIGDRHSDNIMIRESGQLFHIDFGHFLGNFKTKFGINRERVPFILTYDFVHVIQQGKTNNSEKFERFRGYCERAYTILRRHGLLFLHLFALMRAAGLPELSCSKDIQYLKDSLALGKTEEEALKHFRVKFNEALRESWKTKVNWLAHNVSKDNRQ

IC50 [1]: 0.29 nM
IC50 [2]: 0.97 nM
SMILES: Cc1nc(-c2cn3c(n2)-c2ccc(-c4cnn(C(C)(C)C(N)=O)c4)cc2OCC3)n(C(C)C)n1 [TASELISIB]
